From US20250145946A1, “GENERATION OF PURE RETINAL CELLS FROM HUMAN PLURIPOTENT STEM CELLS” (Wisconsin Alumni Research Foundation, priority 2023, published 2025)

Assays:
[1] = tested on: H9 human embryonic stem cells (hESCs); experiment: qPCR analysis of neural and retinal gene expression during hPSC neural/retina differentiation; format: cell-based
Procedure: hPSCs (H9, IMR-90-4 and WC30) were maintained under E8/feeder-free culture condition and passaged at 1:20 ratio with Rock inhibitor. After each new passage, the cells were fed with E8 medium for another 1˜2 days to reach 30-40% confluence. To initiate retina differentiation, culture medium was replaced with Retina Induction Medium (RIM) containing Neural induction medium (NIM) comprising DMEM/F12 media containing 1% N2 and 1× nonessential amino acids (NEAA) supplemented with 10 μM SB431542 (TGF inhibitor, Stemgent, 04-0010-10); this new passage day was counted as day 0 (DO) of retina differentiation. Cells were then fed daily with RIM, or every other day based on the cell density. On day 4, the cells were dissociated by ReLeSR (STEM CELL) or EDTA and re-suspended in the fresh RIM containing 0.5 micromolar (μM) Rock inhibitor. Cell clusters were thereafter transferred to a cell culture flask and cultured in suspension. On day 5, the resulting cell spheres were fed with RIM without SB431542. On day 6, the cell spheres were fed with Retina Specification Medium (RSM) containing NIM supplemented with 10 ng/ml BMP2 (R&D SYSTEMS, 355-BM) every other day till day 20. Typical optical cup structures can be observed as early as day 15; BMP2 can be replaced by BMP4 or BMP7. At day 20, the spheres were cultured in Transition medium (DMEM/F12: Neurobasal (1:1) with 1% N2, 2% B27, 1×NEAA and 1×Glutamax) until analysis.
Total RNA was isolated with the RNeasy Plus Mini Kit according to the manufacturer's instructions. For quantitative PCR (qPCR), cDNA was synthesized using PrimeScript RT Reagent Kit (Takara). qPCR was performed using iTaq Universal SYBR Green Supermix (Bio-Rad). GAPDH gene was used as an internal control to equalize cDNA.
In order to understand whether activation of the BMP pathway was required for switching the neuro/ectoderm to their retinal fate (because inhibition of TFG-beta, BMP, and/or WNT promotes neuroectoderm specification from hPSCs), the next step was to find how regulation of these pathways affected retinal specification. H9 human embryonic stem cells (hESCs) were differentiated to neuroepithelia by culture in chemically defined media as disclosed above and then treated with inhibitors against BMP (DMH1), TGF-beta (SB-431542, SB), or WNT (IWR1) pathways separately for 6 days during the neural induction process (FIG. 2a).
Due to the lack of retinal differentiation resulting from BMP inhibition, expression of retina genes was examined at multiple time points in SB and SB plus dorsomorphin homolog 1 (SB+DMH1), which was a well-established dual-SMAD inhibition condition for neural conversion (Chambers, S. M. et al., 2009, Nat Biotechnol 27:275-280). […] Because SOX1 expression was known to be absent in retinal progenitors (also shown in FIG. 7a), expression of SOX2 and SOX1 presented a simple determining marker for cortical vs. retinal progenitors. Over 80% of the differentiating cells were SOX1 and SOX2 double positive cells (definitive for neuroepithelial cells) under dual-SMAD inhibition conditions at day 12 while only 14% of cells in the SB condition were positive for expression of both these genes (FIG. 8a).
The finding that BMP inhibition blocked EFTF expression raised the question of whether BMP was sufficient for retinal differentiation. To determine whether this was the case, cells were treated with BMP2 (2 ng/ml) on day 6 and collected on day 12 (FIG. 3a). […] Correspondingly, expression of retinal lineage genes PAX6, SIX6 and VSX2 was increased (FIG. 11a).
Next, these cells were treated for 4 days with BMP2 starting from day 4, 5, 6 or 7 and retinal gene expression examined at day 12 to determine whether BMP specified retinal fate. […] Thereafter, e.g., at day 7, enhancement of retinal gene expression by BMP2 diminished (FIG. 11b). Thus, induction of retinal fate by BMP occurred at the primitive neuroepithelial stage when these cells were negative for SOX1. […]

hPSCs = experiment: Single nucleus RNA-seq (snRNA-Seq) profiling of differentiating cells; format: cell-based, human
Procedure: Differentiating cells at multiple time points (day 0-day 12) indicated below were digested and collected for nucleus isolation and library construction (Tao et al., 2024, Nat. Biotech. 12:1404-1416; https://doi.org/10.1038/s41587-023-01977-4). All libraries prepared in this way were processed by NovaSeq. Alignment of raw sequencing reads, and generation of feature barcode matrices were performed using Cellranger (7.1.0). Seurat (4.1.3) was used to process feature barcode matrices and analyze snRNA-Seq data32. All samples were processed under standard quality control metrics. Single cells with more than 300 unique genes (nFeature) and less than 15% or 20% mitochondrial gene reads (percent.mt) were selected for follow-up analysis. Additional procedures were used to exclude low quality cells and doublets in each sample (nFeature<6,000 and nCount<20,000). In day 30 retina organoid samples, retinoic acid (RA) was used to accelerate retinogenesis from day 20. Early exposure to RA can caudalize progenitors towards the spinal cord region of the neural tube. Cells were filtered by removing HOXB3- and HOXB4-expressing cells to exclude possible caudalized cells in this sample. After quality control, all snRNA-Seq data were normalized using the SCTransform (v2) function in Seurat with mitochondria genes regressed out (Choudhary, S. et al., 2022, Genome Biol 23, 27). PCA and UMAP reduction, gene feature plots were done by using Seurat as well.
Regulation of retinal differentiation by the BMP pathway was also assessed. Single nucleus RNA-seq (snRNA-Seq) assays were performed to profile and compare the differentiating cells under the SB or SB+DMH1 conditions (FIG. 2d). On day 6, after filtering low quality and dead cells, 8,533 and 9,756 cells in the SB and SB+DMH1 groups were collected, respectively. Uniform manifold approximation and projection (UMAP) clustering identified 11 clusters in both conditions (FIG. 2e). Cell composition in the differentiating cells was very similar among these clusters except cluster neuroepithelial 2 (NE2) and 7 (NE7) (FIGS. 2f-2g). The percentage of cells from different conditions in other clusters was roughly equal to their ratios in the total cells. Cells in most of the clusters expressed neural progenitor makers such as SOX2, NES, MKI67 and GLI3 and EFTFs such as PAX6, RAX, LHX2, SIX3 and OTX2 (FIG. 2g), but not SIX6 in either condition at this time point. […] Among all these clusters, very few differentially expressed genes (DEGs) were identified between the two conditions (FIGS. 9b-9c).
To verify this observation, cells were differentiated with only SB for the first 6 days to generate primitive neuroepithelial cells and then how the BMP pathway regulated retinal differentiation was investigated by treating the cells with or without DMH1 at day 6 (FIG. 2d). Cell nuclei were collected on day 12 for snRNA-Seq to compare differentiating cells in the control (medium without inhibitors) and under DMH1 conditions. After quality control, 12,048 and 27,280 high quality cells were collected from cultured treated under each of these culture conditions, respectively, for snRNA-Seq analysis (results shown in FIGS. 2h-2i). UMAP clustering identified 13 clusters (FIGS. 2h-2j, FIG. 10a). Most of these clusters expressed SOX2, NES, GLI3 and SIX3. […] Ratios of cells from each condition in most clusters were close to their ratios in the total cells except in cluster neural progenitor 6 (NP6), 11 (NP11) and 12 (NP12). […]

H9 ESC line = experiment: Immunostaining of VSX2, PAX6, CRX and OPSIN in retina progenitors/organoids; format: cell-based, human; conditions: day 20 of differentiation, 10 ng/ml BMP2; FIG. 11d
[2] = BMP2 2 ng/ml on day 6, collected day 12, FIG. 3b
[3] = BMP2 for 4 days starting at day 4, examined at day 12, FIG. 3d

B1: BMP2: bone morphogenic protein variant species; BMP activator (R&D SYSTEMS, 355-BM) (protein, UniProt P12643 283-396, looked up)
Bone morphogenetic protein 2: QAKHKQRKRLKSSCKRHPLYVDFSDVGWNDWIVAPPGYHAFYCHGECPFPLADHLNSTNHAIVQTLVNSVNSKIPKACCVPTELSAISMLYLDENEKVVLKNYQDMVVEGCGCR
- expression of definitive neuroepithelial marker SOX1 [1, 2]: repressing
- expression of retinal lineage genes VSX2, RAX, SIX6 and PAX6 [1, 2]: strongly enhanced
- expression of the definitive neuroepithelial marker SOX1 ([1]; BMP2 10 ng/ml, FIG. 3e): reducing expression
- VSX2 and PAX6 expression ([1]; BMP2 10 ng/ml, FIG. 3e, FIG. 11c): maximum levels
- dose effect on VSX2 and PAX6 expression levels ([1]; BMP2 doses, FIG. 3e, FIG. 11c): increased with higher doses
- expression levels of retinal lineage genes VSX2, PAX6, RAX and SIX6 ([1]; BMP2 for 4 days starting at around day 5-6, examined at day 12, FIG. 11b): peaked
- SOX1 expression [1, 3]: low expression levels
- VSX2 expression [1, 3]: low expression levels
- enhancement of retinal gene expression ([1]; BMP2 for 4 days starting at day 7, examined at day 12, FIG. 11b): diminished
- expression pattern of SOX1 over time ([1]; time course after day 6, SB condition vs BMP2 administration, FIG. 3c): completely blocked
- expression of retina specific marker SIX6 (hPSCs; day 12, BMP2 10 ng/ml after SB, not observed in control or DMH1 condition): began to express in a few clusters
- ID1/2/3/4 expression (activation of BMP pathway) (hPSCs; day 12, BMP2 10 ng/ml vs Control): upregulation
- retina lineage genes SFRP2, PAX6, DALP1, MITF (DEGs) (hPSCs; day 12, BMP vs Control condition, FIG. 13a): up regulated
- PAX6, RAX, SIX3, OTX2, MITF and SIX6 at the subpopulation levels (hPSCs; day 12, BMP vs Control in each cluster, FIG. 5g): up-regulation
- optic vesicle markers VSX2 and MITF (hPSCs; day 12, compared to the Control and DMH1 conditions, FIG. 13b): upregulated
- VSX2 and PAX6 expression by immunostaining (H9 ESC line): enriched
